# In patent US20150080438A1, “6,7-Dihydro-5H-benzo[7]annulene derivatives, processes for their preparation, pharmaceutical products comprising them and their use for preparing medicaments” (Bayer Intellectual Property GmbH, priority 2011, published 2015):
# The chains behind the UniProt entries cited, without tags or fusion partners.
# UniProt P03372, whole entry: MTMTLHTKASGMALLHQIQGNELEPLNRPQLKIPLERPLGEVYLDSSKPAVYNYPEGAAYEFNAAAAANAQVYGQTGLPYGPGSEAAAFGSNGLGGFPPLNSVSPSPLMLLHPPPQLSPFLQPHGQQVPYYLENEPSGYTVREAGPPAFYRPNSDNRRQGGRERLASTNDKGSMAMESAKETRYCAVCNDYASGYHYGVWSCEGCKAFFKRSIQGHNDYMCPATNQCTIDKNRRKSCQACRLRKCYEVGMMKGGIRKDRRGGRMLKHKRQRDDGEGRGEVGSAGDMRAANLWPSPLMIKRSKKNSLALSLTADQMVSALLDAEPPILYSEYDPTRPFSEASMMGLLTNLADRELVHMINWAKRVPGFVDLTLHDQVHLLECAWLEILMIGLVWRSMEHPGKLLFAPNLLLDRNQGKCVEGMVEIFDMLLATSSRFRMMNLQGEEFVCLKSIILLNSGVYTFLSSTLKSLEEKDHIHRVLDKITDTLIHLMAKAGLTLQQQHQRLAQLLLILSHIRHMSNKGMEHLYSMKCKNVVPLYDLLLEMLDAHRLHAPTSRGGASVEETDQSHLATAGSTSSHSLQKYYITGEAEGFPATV
# Molecular target: oestrogen receptor (ER) (Homo sapiens, UniProt P03372)
# Experiment: Anti-oestrogenic action in MVLN cells (inhibition of estradiol-induced luciferase, transactivation antagonism)
# Details: read-out: Anti-oestrogenic action in vitro: MVLN transactivation antagonism IC50, inhibition of estradiol-induced luciferase activity
row,IC50 [nM],Structure (SMILES)
1,2,CN(CCCCCCC1=C(c2ccc(F)c(O)c2)CCCc2cc(O)ccc21)CCC[S+]([O-])CCCC(F)(F)C(F)(F)F (stereo not drawn)
2,2,CN(CCCCCCC1=C(c2cccc(O)c2)CCCc2cc(O)ccc21)CCC[S+]([O-])CCC(F)(F)C(F)(F)F (stereo not drawn)

row,Structure (SMILES),IC50 [nM]
1,CN(CCCCCCC1=C(c2ccc(O)cc2)CCCc2cc(O)ccc21)CCCSCCCC(F)(F)C(F)(F)F,2
